The list shows a part of the results, in another mix than the full data. Some results for these compounds are left out of this collection, so the calls shown say nothing about other tests. The source made the active and inactive calls. Calls come from the whole dose curve; as a rule, active = well fitted inhibition curve with a large enough effect; inconclusive = small, poorly fitted or top-dose-only effect; inactive = no such curve, though single readings can be large or run the other way.
Each compound was assayed on Plasmodium falciparum AMA1 (3D7) - RON2 peptide interaction (assay: qHTS for Inhibitors of AMA1-RON; Towards Development of Antimalarial Drug Lead: Primary Screen). Details: AlphaScreen AMA1-biotinylated RON2 peptide binding; at 58.2 µM (top of the series) unless noted.
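Note: 0% = vehicle wells and -100% = peptide control; nearly all actives have a fitted effect of over 45% in size.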

Structure (SMILES)	activity change, negative = inhibition
COc1cc(C(=O)NCC2(N(C)C)CCCCC2)c([N+](=O)[O-])cc1OC	inactive: -4.48%
CN(C)C1(CNC(=O)c2ccc(Br)cc2)CCCCC1	inactive: -12.2%
O=C(NCC1(N2CCCCC2)CCCCC1)c1cccc(Cl)c1	inactive: 2.06%
COc1cccc(C(=O)NCC2(N3CCCCC3)CCCCC2)c1	inactive: -0.688%
COc1ccc(Cl)cc1C(=O)NCC1(N(C)C)CCCCC1	inactive: -0.0567%
O=C(OC1CN2CCC1CC2)C(CO)(c1ccccc1)c1ccccc1 (stereo unspecified)	inactive: 4.29%
CN(C)c1cccc(C(=O)NCC2(N(C)C)CCCCC2)c1	inactive: 6.62%
CC(C)Oc1ccc(C(=O)NCC2(N(C)C)CCCCC2)cc1	inactive: -2.1%
O=C(OCCN1CCCC1)C(O)(c1ccccc1)c1ccccc1	inactive: 12.3%
COc1ccc(Br)c(C(=O)NCC2(N3CCCCC3)CCCCC2)c1	inactive: -6.19%
C=C(C)C#CC(O)(C(=O)OC1CCN(C)CC1)c1ccccc1 (stereo unspecified)	inactive: 0%
CN1[C@@H]2CC[C@H]1CC(OC(=O)C(O)(c1ccccc1)c1ccccc1)C2 (stereo partly specified)	inactive: -3.27%
O=C(NCC1(N2CCCCC2)CCCCC1)c1cc([N+](=O)[O-])ccc1Cl	inactive: -9.24%
Cc1ccc(C(=O)NCC2(N3CCCCC3)CCCCC2)cc1	inactive: 3.23%
CC(C)N1C(=O)CC2(CCN(CCOC(=O)C(O)(c3ccccc3)c3ccccc3)CC2)C1=O	inactive: 3.91%
CCN(CC)CC(C)C(C)OC(=O)C(O)(c1ccccc1)c1ccccc1 (stereo unspecified)	inactive: 7.05%
COc1cc(SC)ccc1C(=O)NCC1(N(C)C)CCCCC1	inactive: -4.3%
Cc1ccccc1C(=O)NCC1(N2CCCCC2)CCCCC1	inactive: -0.893%
CN(C)C1CCCC1OC(=O)C(O)(c1ccccc1)c1ccccc1 (stereo unspecified)	inactive: 2.28%
CN(C)c1ccc(C(=O)NCC2(N(C)C)CCCCC2)cc1	inactive: -1.21%
Cc1cc(C(=O)NCC2(N3CCCCC3)CCCCC2)ccc1[N+](=O)[O-]	inactive: -1.99%
CCN1CCCC(OC(=O)C2(O)c3ccccc3C=Cc3ccccc32)C1 (stereo unspecified)	inactive: 5.94% [at 2.32 µM]
O=C(NCC1(N2CCCCC2)CCCCC1)c1cccc(Br)c1	inactive: -7.86%
COc1ccc(C(=O)NCC2(N(C)C)CCCCC2)cc1	inactive: -10.1%
C=CCN1CCN(CCOC(=O)C(O)(c2ccccc2)c2ccccc2)CC1	inactive: -5.45%
O=C(NCC1(N2CCCCC2)CCCCC1)c1cc(F)c(F)cc1Cl	inactive: 27.5%

Source: PubChem BioAssay AID720542 (National Center for Advancing Translational Sciences (NCATS), 2013)
